The values that follow come from ChEMBL document CHEMBL4422655, “Osthenol, a prenylated coumarin, as a monoamine oxidase A inhibitor with high selectivity” (Bioorg Med Chem Lett, 2019).

Amino acid sequences for entries named in this document (tags omitted).
UniProt P21397, whole entry: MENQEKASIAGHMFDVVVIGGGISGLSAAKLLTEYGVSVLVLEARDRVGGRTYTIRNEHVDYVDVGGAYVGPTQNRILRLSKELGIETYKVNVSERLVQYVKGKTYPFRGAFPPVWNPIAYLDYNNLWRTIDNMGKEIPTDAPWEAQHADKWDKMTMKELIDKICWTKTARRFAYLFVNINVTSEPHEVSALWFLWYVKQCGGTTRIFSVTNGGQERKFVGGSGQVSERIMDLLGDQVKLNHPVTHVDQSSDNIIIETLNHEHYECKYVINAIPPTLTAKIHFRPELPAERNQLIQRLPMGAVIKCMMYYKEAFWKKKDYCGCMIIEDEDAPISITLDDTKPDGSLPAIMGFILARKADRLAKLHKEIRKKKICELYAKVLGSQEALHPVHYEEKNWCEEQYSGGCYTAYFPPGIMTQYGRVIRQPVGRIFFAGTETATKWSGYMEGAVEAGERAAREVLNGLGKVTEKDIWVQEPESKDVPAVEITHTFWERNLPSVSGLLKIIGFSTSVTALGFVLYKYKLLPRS

In this test the target is Amine oxidase [flavin-containing] A (Homo sapiens, UniProt P21397). In words: biochemical.

In general, IC50 refers to the concentration needed to halve the response being measured. A low value points to inhibition by little substance. `C#CCN(C)Cc1ccccc1` [PARGYLINE] returned a half-inhibitory concentration (IC50) of more than 20 µM.
